Laboratory results as given in patent US9420796B2 (priority 2013, dated 2016).
Values joined by “and” are separate entries in the source; they are usually repeats but may differ in a detail not shown here. Equal entries are not always repeated.

Assays:
[1] = system: zebra mussel veligers; experiment: Effluent veliger density in continuous-flow baffled tanks receiving chlorine; conditions: for Mean Percent Removed: loss relative to control tank
Method: All experiments were conducted at a County Water Authority's water treatment plant. A continuous supply of approximately 29,000 liters per day (7600 US gal/day) was needed to carry out this work. Raw water for the study was obtained by tapping into the main water conduit as it entered the plant. An existing unused polymer injection line was plumbed with a ¾ in (18 mm) schedule 40 PVC pipe. A water shut off valve was put at the point where the PVC pipe coupled with polymer line so that the entire system could be dewatered if necessary.
The 18 mm PVC water supply line was plumbed into a manifold system which fed three 60 liter constant head tanks, each fitted with standpipe overflow drains. Ball valves were installed at the point of inflow allowing for better flow control. Four 30 liter baffled tanks were fed from each constant head tank (see FIG. 1). Flow to each baffled tank was controlled by a 12.5 mm (½ in) ball valve installed at the base of the head tank. Equal length (approximately 915 mm or 36 inches) 12.5 mm Tygon tubing delivered raw water (containing veligers) from the constant head tanks to the baffled tanks.
A fifth outflow valve for obtaining veliger density samples was fitted to each constant head tank. The baffled tanks were constructed of plexiglass and had dimensions of approximately 762 mm×300 mm×264 mm (2.5×1×0.88 ft). Each tank was fitted with 5 alternating vertical baffles (see FIG. 2). The flow rate through the tanks was maintained at 1 l/min. The alternating baffles produced a serpentine flow through the tanks with a mean calculated hydraulic residence time of 30 minutes. The effluent of the tanks drained into a collection system and discharged into a sump.
For all experiments, each group of four baffled tanks was considered one experimental unit. One of the baffled tanks was utilized as a control and received no oxidant while the other three served as replicates for a given oxidant dose.
Chlorine stock solutions were prepared by diluting aqueous sodium hypochlorite in filtered raw water. A variable speed peristaltic pump was utilized to continuously pump the stock solution into the system. Injection tees were fabricated from 12.5 mm (½ in) PVC tee fittings and small glass tubing. The tees were spliced into the Tygon tubing approximately half-way between the constant head tank and the baffled tank. This point of injection insured the mixing of stock chlorine solution and raw water before entering the experimental baffled tanks.
The effect of chlorine on veligers was tested at five nominal total chlorine residual concentrations: 0.1, 0.2, 0.5, 0.75 and 1.0 mg/l. Because the inhibition of settlement was one objective of these tests, the experiments were run for seven days.
One method of determining the fate of the veligers passing through the baffled tanks was based on sampling the tank effluent. This was done by placing a fine mesh sieve (initially 74 microns later 63 microns) under the effluent and allowing the effluent to be filtered for 15 to 30 minutes. During chlorination, the time period was 20 to 30 minutes. This time period allowed 20 to 30 liters of water to be filtered.
The material, including veligers, collected in the sieve was resuspended in approximately 20 ml of previously filtered raw water. The concentrated veligers then were counted and densities estimated in the same manner as constant head tank samples.

[2] = system: zebra mussel veligers; experiment: Quantification of veligers in baffled tank sediments after chlorination; conditions: for Veligers in sediments after chlorination: after seven days
[3] = system: juvenile zebra mussels; experiment: Juvenile mussel exposure to chlorine on colonized PVC plates; conditions: chlorine at 1 mg/l; 8 to 12° C.; mussels 0.75 to 5 mm
Method: The effect of chlorine on juvenile mussels was carried out at a nominal total chlorine residual of 1.0 mg/l.
The small size of juvenile mussels (1-5 mm) presented the problem of containment of the animals during exposure to chlorine. Vials perforated with many tiny holes were deemed impractical for two reasons. First, the tiny holes may inhibit the desired circulation of chlorinated water within the vial. Second, the small mussels would be difficult to remove from such vials if they were attached by byssal threads. It was decided that a suitable experimental unit was a small PVC plate that could be colonized by an appropriate number of juvenile mussels. PVC plates could be submerged for uniform exposure and were sampled easily as the small mussels slid off the plates with minimal force.
The mussels were colonized on to plates as two size classes, 0.75-2.0 mm and 2.5-5.0 mm. […]
The mussels were subjected to a continuous dose of 1.0 mg/chlorine. […] Total chlorine residual concentrations were monitored daily using the portable amperometric chlorine analyzer. […]
The sampling procedure involved randomly selecting one plate of each size class from one of the three experimental tanks. […] The condition of the other mussels was determined by their activity in the next 24 hours. […] The length of each mussel was measured to the nearest half millimeter.

In the case of chlorine, the “Veligers that entered the baffled tanks observed in the tank effluents” value ([1]; all the chlorine tests) was “less than 5%”, the “Concentration at which settlement of veligers and early stage bivalves is inhibited” value ([1]; as shown in Example 2) was ≥ 0.1 mg/L and the “Percent loss of veligers relative to control” value ([1]; chlorine concentrations ranging from 0.1 to 1.0 mg/l) was “over 97%”. For the same substance, the “Reduction in veliger numbers compared to controls” value ([1]; doses over 0.1 mg/l) was “over 97%”, the “Effluent veliger concentration, tanks receiving chlorine, mean” value (from here on “Effluent veliger concentration”) ([1]; nominal chlorine 0.1 mg/L) was 0 number/L and the “Mean Percent Removed” value ([1]; nominal chlorine 0.1 mg/L) was 100%. The “Effluent veliger concentration” value ([1]; nominal chlorine 0.2 mg/L) was 0.05 number/L, the “Mean Percent Removed” value ([1]; nominal chlorine 0.2 mg/L) was 99.8% and the “Effluent veliger concentration” value ([1]; nominal chlorine 0.5 mg/L) was 1.10 number/L. The “Mean Percent Removed” value ([1]; nominal chlorine 0.5 mg/L) was 97.5%, the “Effluent veliger concentration” value ([1]; nominal chlorine 0.75 mg/L) was 0 number/L and the “Mean Percent Removed” value ([1]; nominal chlorine 0.75 mg/L) was 100%. For the same substance, the “Mean Percent Removed” value ([1]; nominal chlorine 1.0 mg/L) was 99.9% and 100%, the “Veligers in sediments after chlorination” value ([2]; 0.2 mg/L Cl2, Area #1) was 554 veligers per cm^2 and the “Veligers in sediments after chlorination” value ([2]; 0.2 mg/L Cl2, Area #2) was 90 veligers per cm^2. The “Veligers in sediments after chlorination” value ([2]; 0.2 mg/L Cl2, Area #3) was 2.2 veligers per cm^2, the “Veligers in sediments after chlorination” value ([2]; 1 mg/L Cl2, Area #1) was 1887 veligers per cm^2 and the “Veligers in sediments after chlorination” value ([2]; 1 mg/L Cl2, Area #2) was 120 veligers per cm^2. For the same substance, the “Veligers in sediments after chlorination” value ([2]; 1 mg/L Cl2, Area #3) was 3.4 veligers per cm^2, the “Missing veligers accounted for by sediments in the first section of the tank” value ([2]; 1.0 mg/l chlorine test) was 48% and the “Time of continuous application required to kill juvenile zebra mussels” value [3] was “over 25 days”.
